The results in this text go back to patent US11136311B2, “Heteroaromatic derivatives as NIK inhibitors” (Janssen Pharmaceutica NV, priority 2016, dated 2021).

The chains behind the UniProt entries cited, without tags or fusion partners.
UniProt Q99558, whole entry: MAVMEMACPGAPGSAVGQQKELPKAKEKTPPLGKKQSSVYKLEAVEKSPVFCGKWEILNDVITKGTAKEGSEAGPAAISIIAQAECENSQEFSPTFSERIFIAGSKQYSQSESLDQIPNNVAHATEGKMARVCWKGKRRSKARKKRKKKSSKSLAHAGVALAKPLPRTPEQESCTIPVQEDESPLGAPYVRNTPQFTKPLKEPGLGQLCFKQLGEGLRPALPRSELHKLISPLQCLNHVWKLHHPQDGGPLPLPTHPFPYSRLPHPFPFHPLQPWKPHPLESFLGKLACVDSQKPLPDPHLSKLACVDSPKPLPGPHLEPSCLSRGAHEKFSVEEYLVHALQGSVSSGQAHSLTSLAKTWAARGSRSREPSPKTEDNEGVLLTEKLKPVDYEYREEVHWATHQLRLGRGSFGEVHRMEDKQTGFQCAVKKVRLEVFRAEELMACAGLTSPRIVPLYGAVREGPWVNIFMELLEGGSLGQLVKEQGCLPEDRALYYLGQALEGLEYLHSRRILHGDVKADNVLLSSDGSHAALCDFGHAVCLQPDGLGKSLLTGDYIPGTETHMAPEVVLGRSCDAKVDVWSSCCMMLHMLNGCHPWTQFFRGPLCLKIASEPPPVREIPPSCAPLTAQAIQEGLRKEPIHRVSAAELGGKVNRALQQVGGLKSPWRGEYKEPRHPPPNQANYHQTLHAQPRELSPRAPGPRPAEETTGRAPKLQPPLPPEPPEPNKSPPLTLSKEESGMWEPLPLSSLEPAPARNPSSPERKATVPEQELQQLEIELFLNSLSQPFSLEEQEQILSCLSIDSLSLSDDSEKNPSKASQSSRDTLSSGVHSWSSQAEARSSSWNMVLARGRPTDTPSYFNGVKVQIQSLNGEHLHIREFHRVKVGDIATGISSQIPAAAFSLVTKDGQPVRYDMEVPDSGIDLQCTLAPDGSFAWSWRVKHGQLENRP

Experiment [1] has as its target recombinant human NF-kappaB-inducing kinase (NIK/MAP3K14) (Homo sapiens (Human), UniProt Q99558). Description: Inhibition of auto-phosphorylation of recombinant human NIK/MAP3K14 activity (AlphaScreen). The note with it: read-out: Auto-phosphorylation inhibition of NIK (IC50 (nM)), averaged values over all measurements on all batches. Here is the method:
Inhibition of auto-phosphorylation of recombinant human NF-kappaB-inducing kinase (NIK/MAP3K14) activity (AlphaScreen®)
NIK/MAP3K14 auto-phosphorylation activity was measured using the AlphaScreen® (αscreen) format (Perkin Elmer). All compounds tested were dissolved in dimethyl sulfoxide (DMSO) and further dilutions were made in assay buffer. Final DMSO concentration was 1% (v/v) in assays. Assay buffer was 50 mM Tris pH 7.5 containing 1 mM EGTA (ethylene glycol tetraacetic acid), 1 mM DTT (dithiothreitol), 0.1 mM Na3VO4, 5 mM MgCl2, 0.01% Tween® 20. Assays were carried out in 384 well Alphaplates (Perkin Elmer). Incubations consisted of compound, 25 microM Adenosine-5′-triphosphate (ATP), and 0.2 nM NIK/MAP3K14. Incubations were initiated by addition of GST-tagged NIK/MAP3K14 enzyme, carried out for 1 h at 25° C. and terminated by addition of stop buffer containing anti-phospho-IKK Ser176/180 antibody. Protein A Acceptor and Glutathione-Donor beads were added before reading using an EnVision® Multilabel Plate Reader (Perkin Elmer). Signal obtained in the wells containing blank samples was subtracted from all other wells and IC50's were determined by fitting a sigmoidal curve to % inhibition of control versus Log10 compound concentration.

Another experiment has as its system JJN-3 cells. Description: Antiproliferative activity on JJN-3 (NIK translocated) multiple myeloma cells (CellTiter-Glo). The settings on record: read-out: JJN-3 Proliferation inhibition (IC50 (nM)); JJN-3 (NIK translocated) cells, 96 hr; averaged values. The procedure: (§1) Determination of antiproliferative activity on JJN-3 (NIK translocated) and KMS12-BM (NIK WT) multiple myeloma cells
(§2) All compounds tested were dissolved in DMSO and further dilutions were made in culture medium. Final DMSO concentration was 0.3% (v/v) in cell proliferation assays. Viability was assessed using CellTiter-Glo cell viability assay kit (Promega). The human JJN-3 and KMS12-BM cells (DSMZ) were cultured in RPMI 1640 medium supplemented with 2 mM L-glutamine, and 10% fetal calf serum (PAA). Cells were routinely kept as suspension cells at 37° C. in a humidified 5% CO2 atmosphere. Cells were passaged at a seeding density of 0.2×10^6/ml twice a week. Cells were seeded in black tissue culture treated 96-well plates (Perkin Elmer). Densities used for plating ranged from 15000 (JJN3) to 20000 (KMS12BM) cells per well in a total volume of 135 μl medium. Drugs and/or solvents were added (15 μl) to a final volume of 150 μl. Following 96 hr of treatment, plates were removed from the incubator and allowed to equilibrate to room temperature for approx 10 min. 75 μl CellTiter-Glo reagent was added to each well that was then covered (Perkin Elmer Topseal) and shaken on plate shaker for 10 min. Luminescence was measured on a HTS Topcount (Perkin Elmer). Within an experiment, the results for each treatment were the mean of 2 replicate wells. For initial screening purposes, compounds were tested using a 9 point dilution curve (serial 1:3 dilutions). For each experiment, controls (containing no drug) and a blank incubation (containing cells read at the time of compound addition) were run in parallel. The blank value was subtracted from all control and sample values. For each sample, the mean value for cell growth (in relative light units) was expressed as a percentage of the mean value for cell growth of the control.
(Cellular ATP, detected with luciferase, serves as a proxy for viable cell number.)

For another experiment, the system named is KMS12-BM cells. As to the kind of experiment: Antiproliferative activity on KMS12-BM (NIK WT) multiple myeloma cells (CellTiter-Glo). The settings on record: read-out: KMS-12 Proliferation inhibition (IC50 (nM)), 96 hr, averaged values. The procedure: as §1, §2
Experiment [2] deals with P-IKKα levels in L363 cells. As to the kind of experiment: Effect of compounds on P-IKKα levels in L363 (NIK translocated multiple myeloma) cells. The note with it: read-out: Inhibition of pIKKα_L-363 (IC50 (nM)), averaged values. Here is the method: Effect of compounds on P-IKKα levels in L363 (NIK translocated multiple myeloma) cells
All compounds tested were dissolved in DMSO and further dilutions were made in culture medium. Final DMSO concentration was 1% (v/v) in cell assays. The human L363 cells (ATCC) were cultured in RPMI 1640 medium supplemented with GlutaMax and 10% fetal calf serum (PAA). Cells were routinely maintained at densities of 0.2×10^6 cells per ml-1×10^6 cells per ml at 37° C. in a humidified 5% CO2 atmosphere. Cells were passaged twice a week splitting back to obtain the low density. Cells were seeded in 96 well plates (Nunc 167008) at 2×10^6 per ml media in a volume of 75 μl per well plus 25 μl 1 μg/ml recombinant human B-cell activating factor (BAFF/BLyS/TNFSF13B). Seeded cells were incubated at 37° C. in a humidified 5% CO2 atmosphere for 24 hr. Drugs and/or solvents were added (20 μl) to a final volume of 120 μl. Following 2 hr treatment plates were removed from the incubator and cell lysis was achieved by the addition of 30 μl 5× lysis buffer followed by shaking on a plate shaker at 4° C. for 10 min. At the end of this incubation lysed cells were centrifuged at 800×g for 20 min at 4° C. and the lysate was assessed for P-IKKα levels by sandwich immuno-assay carried out in anti-rabbit antibody coated Mesoscale plates. Within an experiment, the results for each treatment were the mean of 2 replicate wells. For initial screening purposes, compounds were tested using an 8 point dilution curve (serial 1:3 dilutions). For each experiment, controls (containing MG132 and BAFF but no test drug) and a blank incubation (containing MG132 and BAFF and 10 μM ADS125117, a test concentration known to give full inhibition) were run in parallel. The blank incubation value was subtracted from all control and sample values. To determine the IC50 a sigmoidal curve was fitted to the plot of % inhibition of control P-IKKα levels versus Log10 compound concentration.

On to `CC(C)n1cc(Nc2nccc(-c3cc(C#N)c4c(c3)C(C)(CO)CN4)n2)cn1` (stereo not shown), for which the IC50 in experiment [1] came out at 5.4 nM; in the experiment with JJN-3 cells, 191 nM; in the experiment on KMS12-BM cells, 437 nM.

In the case of `CC(C)CCc1c(Nc2nccc(-c3cc(C#N)c4c(c3)[C@@](C)(CO)CN4)n2)cnn1CCC(C)C`, the figures for the IC50 (in experiment [2]; in the experiment on JJN-3 cells; with KMS12-BM cells) were 12 nM, 112 nM and 6460 nM, respectively.

In the case of `Cc1cc(Nc2nccc(-c3cc(C#N)c4c(c3)C(C)(CO)CN4)n2)n(CC(=O)N(C)C)n1` (stereo not shown), the IC50 was 11 nM in experiment [1], 1860 nM in the experiment on JJN-3 cells and more than 10000 nM in the experiment with KMS12-BM cells.

Take `CN(C)C(=O)Cn1ccc(Nc2nccc(-c3cc(C#N)c4c(c3)C(C)(CO)CN4)n2)n1` (stereo not shown): the IC50 in experiment [1] was determined as 10 nM; in the experiment with JJN-3 cells, 4360 nM; with KMS12-BM cells, 4170 nM.

Consider `CC1(Cn2cc(Cl)cc2Nc2nccc(-c3cc(C#N)c4c(c3)[C@@](C)(CO)CN4)n2)COC1`, for which the IC50 in experiment [2] is 35 nM; in the experiment with JJN-3 cells, 832 nM; in the experiment on KMS12-BM cells, 2630 nM.

In the case of `CC(C)n1nc(Nc2nccc(-c3cc(C#N)c4c(c3)[C@@](C)(CO)CN4)n2)cc1C(=O)N(C)C1CC1`, the IC50 in experiment [1] is 11.7 nM; in experiment [2], 98 nM; in the experiment with JJN-3 cells, 257 nM; in the experiment with KMS12-BM cells it was more than 10000 nM.

Consider `Cn1nc(C(C)(C)C)cc1Nc1nccc(-c2cc(C#N)c3c(c2)C(C)(CO)CN3)n1` (stereo not shown), for which the IC50 in experiment [1] was found to be 5.5 nM; in the experiment with JJN-3 cells, 129 nM; with KMS12-BM cells, 7940 nM.
